Values quoted from earlier work as cited in US20100248223A1, “ASSESSING OUTCOMES FOR BREAST CANCER PATIENTS” (MAYO FOUNDATION FOR MEDICAL EDUCATION AND RESEARCH, priority 2006, published 2010).

Chains of the proteins cited; added tags and fusions are not shown.
UniProt P10635, whole entry: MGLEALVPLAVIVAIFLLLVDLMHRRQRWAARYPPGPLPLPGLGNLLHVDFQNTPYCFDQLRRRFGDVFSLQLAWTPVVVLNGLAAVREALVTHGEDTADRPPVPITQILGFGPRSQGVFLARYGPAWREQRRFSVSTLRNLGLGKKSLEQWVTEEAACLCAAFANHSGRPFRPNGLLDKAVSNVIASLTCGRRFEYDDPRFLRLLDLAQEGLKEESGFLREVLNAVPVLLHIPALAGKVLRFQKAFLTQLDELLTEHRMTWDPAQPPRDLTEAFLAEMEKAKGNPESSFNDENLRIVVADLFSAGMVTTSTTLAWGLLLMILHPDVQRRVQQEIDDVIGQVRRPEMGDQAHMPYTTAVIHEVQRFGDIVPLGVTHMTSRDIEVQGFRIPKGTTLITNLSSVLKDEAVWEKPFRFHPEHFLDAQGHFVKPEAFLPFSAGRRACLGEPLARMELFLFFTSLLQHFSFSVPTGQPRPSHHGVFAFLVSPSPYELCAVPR

Molecular target: CYP2D6 enzyme system (Homo sapiens, UniProt P10635)
Conditions: classification from cited literature; cited from earlier work

Which “strength of inhibition of the CYP2D6 enzyme system” value does the source give for CNCCC(Oc1ccc(C(F)(F)F)cc1)c1ccccc1 (stereo not shown) [fluoxetine] here?
The value was “potent”.
